Results on 24 molecules are retold here after patent US20240383958A1, “APELIN RECEPTOR AGONISTS AND USES THEREOF” (VISTERRA, INC., priority 2023, published 2024).

One experiment has as its target T1, apelin receptor (Homo sapiens, UniProt P35414).
T1 construct: host or cells: human heart tissue
T1 sequence (P35414 1-380): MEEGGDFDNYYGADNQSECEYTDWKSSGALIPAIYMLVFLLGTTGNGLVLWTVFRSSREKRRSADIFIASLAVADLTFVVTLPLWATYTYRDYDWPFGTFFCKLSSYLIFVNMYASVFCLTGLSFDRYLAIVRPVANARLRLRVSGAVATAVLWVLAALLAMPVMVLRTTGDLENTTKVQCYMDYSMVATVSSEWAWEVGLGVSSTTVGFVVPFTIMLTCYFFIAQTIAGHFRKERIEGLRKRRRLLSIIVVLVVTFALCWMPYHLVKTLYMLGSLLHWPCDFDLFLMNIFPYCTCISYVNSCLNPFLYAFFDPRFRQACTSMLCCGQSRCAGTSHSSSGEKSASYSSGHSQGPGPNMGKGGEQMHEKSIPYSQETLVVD
Conditions: human heart; cited from earlier work.

In experiment [1] the target is T2, apelin receptor (AGTRL1) on CHO-K1 cells (UniProt P35414 1-380, limits assumed).
T2 sequence (looked up): T1 sequence (P35414 1-380)
Nature of the experiment: cell-based or functional assay.

The next experiment has as its target T3, apelin receptor (AGTRL1) (Homo sapiens, UniProt P35414).
T3 construct: host or cells: CHO-K1
T3 sequence (P35414 1-380): T1 sequence (P35414 1-380)
Nature of the experiment: PathHunter beta-arrestin signaling assay. It is filed as cell-based. The note with it: PathHunter CHO-K1 AGTRL1 β-arrestin cells. As for the experimental part:
In this example, commercially available HitHunter® cAMP assay was used to determine the effect of apelin receptor agonists on Gai signaling, measured cAMP depletion. Next, commercially available PathHunter® beta-arrestin assay was used to determine the effect of apelin receptor agonists on beta-arrestin signaling. Additionally, the effect of apelin receptor agonists on ERK signaling was determined.
In a 384-well plate (Corning #3897), PathHunter® CHO-K1 AGTRL1 β-arrestin cells (Eurofins DiscoverX #93-0250C2) were seeded at 5×10^3 cells/well in 20 μL AssayComplete Cell Plating 2 Reagent (Eurofins DiscoverX #93-0563R2A) and were incubated overnight at 37° C. with 5% CO2. On the following day, the plate was treated with 5 μL/well of compounds serially diluted in 1×PBS+0.1% BSA buffer and was incubated for 1.5 hr at 37° C. with 5% CO2. Then, 12.5 μL/well of detection solution was added, prepared as instructed in the PathHunter® Detection Kit (Eurofins DiscoverX #93-0001), the plate was wrapped in foil, and was incubated at room temperature. Plates were read after 1-2 hr of incubation on a standard luminescence plate reader. In this assay, low levels of β-arrestin in cells were directly related to low luminescence signal. Using Four Parameter Logistic Regression for curve fitting, the raw data file was processed into S-shaped dose-response curves from which values, such as the EC50, Hill Slope, and Emax, were quantified.

Substitutions are numbered along the chain they refer to. In names and notes the source's numbering stands.

For elabela-11, in the experiment with apelin receptor, the “affinity for the apelin receptor” value is given as “affinity an order of magnitude lower than that of the other peptides”.
Take elabela-32: the “affinity for the apelin receptor” value with apelin receptor is reported as “subnanomolar affinity”.

B1: APL-B (Fc fusion)
chain: DKTHTSPPSPAPEAAGGPSVFLFPPKPKDTLMISRTPEVTCVVVDVSHEDPEVKFNWYVDGVEVHNAKTKPREEQYNSTYRVVSVLTVLHQDWLNGKEYKCKVSNKALPAPIEKTISKAKGQPREPQVYTLPPSREEMTKNQVNLTCLVKGFYPSDIAVEWESNGQPENNYKTTPPVLDSDGSFFLNSTLTVDKSRWQQGNVFSCSVMHEALHNHYTQKSLSLSPGKGGGGSGGGGSGGGGSQRPRLSHKGPMVF
Consider B1, for which, in experiment [1], the “ERK EC50” value is 2.63 nM, the “beta-Arrestin EC50 (nM) Exp. 1” value was 337 nM, the “beta-Arrestin EC50 (nM) Exp. 2” value came out at 110 nM and the “cAMP EC50 (nM) Exp. 1” value was determined as 3.66 nM. In experiment [1], the “cAMP EC50 (nM) Exp. 2” value is 5.4 nM.

B2: APL-K (Fc fusion)
chain: B1 chain with S248Q, G251N, V254A
Consider B2, for which, in experiment [1], the “cAMP EC50 (nM) Exp. 1” value is 14.2 nM and the “cAMP EC50 (nM) Exp. 2” value turned out to be 14.2 nM.

B3: APL-A (Fc fusion)
chain: B1 chain with V254P
B3: in experiment [1], the “ERK EC50” value turned out to be 1.97 nM, the “beta-Arrestin EC50 (nM) Exp. 1” value turned out to be 1010 nM, the “cAMP EC50 (nM) Exp. 1” value was 6.85 nM and the “cAMP EC50 (nM) Exp. 2” value was 2.2 nM.

B4: APL-C (Fc fusion)
chain: B1 chain with K250W, V254P
On to B4, for which, in experiment [1], the “ERK EC50” value came out at 0.68 nM, the “cAMP EC50 (nM) Exp. 1” value was 50.4 nM and the “cAMP EC50 (nM) Exp. 2” value is 24.6 nM.

B5: APL-G (Fc fusion)
chain: B1 chain with V254A
For the molecule B5, in experiment [1], the “ERK EC50” value was found to be 0.64 nM, the “beta-Arrestin EC50 (nM) Exp. 1” value is 23.6 nM, the “beta-Arrestin EC50 (nM) Exp. 2” value was found to be 44.5 nM and the “cAMP EC50 (nM) Exp. 1” value was 2.81 nM. The “cAMP EC50 (nM) Exp. 2” value in experiment [1] stood at 1.2 nM.

B6: APL-D (Fc fusion)
chain: B1 chain with Q243E, V254P
For B6, in experiment [1], the “ERK EC50” value was determined as 0.1 nM, the “beta-Arrestin EC50 (nM) Exp. 1” value was found to be 181 nM, the “cAMP EC50 (nM) Exp. 1” value turned out to be 3.45 nM and the “cAMP EC50 (nM) Exp. 2” value stood at 11.1 nM.

B7: APL-M (Fc fusion)
chain: B1 chain with K250W, V254A, F255W
Turning to B7, in experiment [1], the “cAMP EC50 (nM) Exp. 1” value was 8.3 nM and the “cAMP EC50 (nM) Exp. 2” value was 8.3 nM.

B8: APL-L (Fc fusion)
chain: B1 chain with S248Q, G251N, V254A, F255W
Regarding B8, in experiment [1], the “cAMP EC50 (nM) Exp. 1” value was 73.4 nM and the “cAMP EC50 (nM) Exp. 2” value came out at 73.4 nM.

B9: APL-H (Fc fusion)
chain: B1 chain with V254H, F255W
For the molecule B9, in experiment [1], the “beta-Arrestin EC50 (nM) Exp. 1” value stood at 172 nM, the “beta-Arrestin EC50 (nM) Exp. 2” value came to 172 nM, the “cAMP EC50 (nM) Exp. 1” value is 6.54 nM and the “cAMP EC50 (nM) Exp. 2” value stood at 6.5 nM.

B10: APL-J (Fc fusion)
chain: B1 chain with M253A, V254A, F255Y
B10: in experiment [1], the “beta-Arrestin EC50 (nM) Exp. 1” value worked out at 370 nM, the “beta-Arrestin EC50 (nM) Exp. 2” value amounted to 373 nM and the “cAMP EC50 (nM) Exp. 2” value stood at 3.8 nM.

B11: APL-F (Fc fusion)
chain: B1 chain with M253A, V254P, F255Y
On to B11, for which, in experiment [1], the “ERK EC50” value is 1.95 nM, the “beta-Arrestin EC50 (nM) Exp. 1” value stood at 1430 nM, the “cAMP EC50 (nM) Exp. 1” value was 18.3 nM and the “cAMP EC50 (nM) Exp. 2” value is 13.6 nM.

B12: APL-I (Fc fusion)
chain: B1 chain with M253A, V254A, F255W
B12: in experiment [1], the “cAMP EC50 (nM) Exp. 1” value is 18 nM and the “cAMP EC50 (nM) Exp. 2” value came out at 18 nM.

B13: APL-E (Fc fusion)
chain: B1 chain with M253H, V254P
As to B13, in experiment [1], the “ERK EC50” value was determined as 14.4 nM, the “cAMP EC50 (nM) Exp. 1” value worked out at 54.6 nM and the “cAMP EC50 (nM) Exp. 2” value amounted to 37.5 nM.

B14: APL-C: Fc-linker fusion of apelin analogue QRPRLSHWGPMPF (K8W) (protein)
chain: MRAWIFFLLCLAGRALADKTHTSPPSPAPEAAGGPSVFLFPPKPKDTLMISRTPEVTCVVVDVSHEDPEVKFNWYVDGVEVHNAKTKPREEQYNSTYRVVSVLTVLHQDWLNGKEYKCKVSNKALPAPIEKTISKAKGQPREPQVYTLPPSREEMTKNQVNLTCLVKGFYPSDIAVEWESNGQPENNYKTTPPVLDSDGSFFLNSTLTVDKSRWQQGNVFSCSVMHEALHNHYTQKSLSLSPGKGGGGSGGGGSGGGGSQRPRLSHWGPMPF
With B14, in the experiment with apelin receptor (AGTRL1), the “beta-Arrestin EC50 (nM) Exp. 1” value was “Weak” and the “beta-Arrestin EC50 (nM) Exp. 2” value is listed as “Weak”.

B15: APL-E: Fc-linker fusion of apelin analogue QRPRLSHKGPHPF (M11H) (protein)
chain: B14 chain with W267K, M270H
Turning to B15, in the experiment with apelin receptor (AGTRL1), the “beta-Arrestin EC50 (nM) Exp. 1” value is “Weak” and the “beta-Arrestin EC50 (nM) Exp. 2” value is reported as “Weak”.

B16: APL-A: Monovalent IgG1 Fc fused via GGGGSGGGGSGGGGS linker to wild-type apelin-13 QRPRLSHKGPMPF (protein)
chain: B14 chain with W267K
B16: in the experiment with apelin receptor (AGTRL1), the “beta-Arrestin EC50 (nM) Exp. 2” value is on record as “Weak”.

B17: APL-M: Leader-Fc-linker fusion of apelin analogue QRPRLSHWGPMAW (K8W, P12A, F13W) (protein)
chain: B14 chain with P271A, F272W
Consider B17, for which, in the experiment with apelin receptor (AGTRL1), the “beta-Arrestin EC50 (nM) Exp. 1” value is on record as “Weak” and the “beta-Arrestin EC50 (nM) Exp. 2” value was “Weak”.

B18: APL-F: Fc-linker fusion of apelin analogue QRPRLSHKGPAPY (M11A, F13Y) (protein)
chain: B14 chain with W267K, M270A, F272Y
On to B18, for which the “beta-Arrestin EC50 (nM) Exp. 2” value with apelin receptor (AGTRL1) is listed as “Weak”.

B19: APL-L: Leader-Fc-linker fusion of apelin analogue QRPRLQHKNPMAW (S6Q, G9N, P12A, F13W) (protein)
chain: B14 chain with S265Q, W267K, G268N, P271A, F272W
For the molecule B19, in the experiment with apelin receptor (AGTRL1), the “beta-Arrestin EC50 (nM) Exp. 1” value was “Weak” and the “beta-Arrestin EC50 (nM) Exp. 2” value is on record as “Weak”.

B20: APL-K: Leader-Fc-linker fusion of apelin analogue QRPRLQHKNPMAF (S6Q, G9N, P12A) (protein)
chain: B14 chain with S265Q, W267K, G268N, P271A
With B20, in the experiment with apelin receptor (AGTRL1), the “beta-Arrestin EC50 (nM) Exp. 1” value is recorded as “Weak” and the “beta-Arrestin EC50 (nM) Exp. 2” value is “Weak”.

B21: APL-I: Leader-Fc-linker fusion of apelin analogue QRPRLSHKGPAAW (M11A, P12A, F13W) (protein)
chain: B14 chain with W267K, M270A, P271A, F272W
As to B21, in the experiment with apelin receptor (AGTRL1), the “beta-Arrestin EC50 (nM) Exp. 1” value is given as “Weak” and the “beta-Arrestin EC50 (nM) Exp. 2” value is reported as “Weak”.

B22: APL-D: Fc-linker fusion of apelin analogue ERPRLSHKGPMPF (Q1E) (protein)
chain: B14 chain with Q260E, W267K
Take B22: the “beta-Arrestin EC50 (nM) Exp. 2” value with apelin receptor (AGTRL1) was “Weak”.
